## Measured affinities in a library of Ab-95 light chain variants

Data: MIT Lincoln Laboratory AlphaSeq set, Engelhart et al. 2022, doi:10.1038/s41597-022-01779-4, as distributed in FLAb.

Binding partner: SARS-CoV-2 spike HR2 peptide, sequence PDVDLGDISGINAS.

Parent scFv Ab-95: VH joined to VL by the linker GGGGSGGGGSGGGGS. Changes lie in the light chain CDRs alone.
VH: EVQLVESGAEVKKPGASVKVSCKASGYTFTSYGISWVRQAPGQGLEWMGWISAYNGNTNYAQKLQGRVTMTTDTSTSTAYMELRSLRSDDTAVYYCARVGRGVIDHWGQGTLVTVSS
VL: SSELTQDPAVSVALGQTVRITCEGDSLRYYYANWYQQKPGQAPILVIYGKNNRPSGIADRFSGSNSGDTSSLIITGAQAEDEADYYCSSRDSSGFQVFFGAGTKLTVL

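Phage display of a naive human antibody library on the peptide gave the parent. Library AAYL52 holds single substitutions and randomly drawn double and triple substitutions in the CDRs. The scFvs were displayed on barcoded MATa yeast, the peptide on MATalpha yeast. After mating in shaken culture at 30 °C for 16 h, diploids were selected and their barcode pairs sequenced. The ratio of observed to expected reads was calibrated, replicate by replicate, on BCL2-family standards whose Kd was known from biolayer interferometry. Each pool was mated in three replicate cultures.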

Each variant is given by its three light chain CDRs, as the data file delimits them; those of the parent are EGDSLRYYYAN, GKNNRPS, SSRDSSGFQVF.
This list gathers variants with a substitution at N51 (VL, numbered from residue 1).
The Kd shown is the geometric mean over detected replicates; a lower Kd is a better binder.
A pair that was not seen in any replicate is written "no signal"; this usually means weak binding, but a binder can also be missed.
Background: pairings of library AAYL52 with three empty control strains gave a value in 28% of cases (median 8.2 µM, 5th percentile 800 nM). Values in that range, when seen in few replicates, are hard to tell from nonspecific mating.
For reference, the parent read 200 nM as the reference entry and 180 nM as a member of this library.

For EGDSLRYYYAN | GKDNRPS | SQRDSSKFQVF, the assay gave 4.5 µM (3 of 3 replicates).
For EGDSLRYYYAN | GKINRPS | SSRDSSKFQVF, the assay gave no signal (0 of 3 replicates).
For EGDSLRYYYAW | GKIWRPS | SSRDSSGFQVF, the assay gave 6.1 µM (1 of 3 replicates).
For EGDELRYYYAN | GKDNRWS | SSRDSSGFQVF, the assay gave 12 µM (1 of 3 replicates).
For EGDSLRYYYAN | GVVNRPS | SSRDSSQFQVF, the assay gave 13 µM (2 of 3 replicates).
For EGVSLLYYYAN | GKTNRPS | SSRDSSGFQVF, the assay gave no signal (0 of 3 replicates).
For EGDSLRRYYAN | GKVNRPI | SSRDSSGFQVF, the assay gave 48 µM (2 of 3 replicates).
For EGDSLPYEYAN | GKFNRPS | SSRDSSGFQVF, the assay gave 25 µM (3 of 3 replicates).
For EADSLRYYYAN | GGLNRPS | SSRDSSGFQVF, the assay gave 1.8 µM (3 of 3 replicates).
For EGDSLRYYQAN | GKINRPS | SSRDSSYFQVF, the assay gave 1.7 µM (3 of 3 replicates).
For EGDSLTYYYAN | GKVNGPS | SSRDSSGFQVF, the assay gave no signal (0 of 3 replicates).
For EGDSLRYYVAN | GKRNRPS | SSRDSSGLQVF, the assay gave no signal (0 of 3 replicates).
For EGDSLRFYYAN | GKRERPS | SSRDSSGFQVF, the assay gave 46 µM (3 of 3 replicates).
For EGDSLRYYYAN | GKLNQPS | SSRDSSGFQVF, the assay gave 1.4 µM (1 of 3 replicates).
For EGDSLRYRYAN | GKWNRPS | SSRDSSGFQVF, the assay gave 1.4 µM (3 of 3 replicates).
For EGDSLRYYYAN | MKSNRPS | SSRDSEGFQVF, the assay gave no signal (0 of 3 replicates).
For EGMSLRYYYAN | GKLNRPS | SSRDSQGFQVF, the assay gave 2.6 µM (1 of 3 replicates).
For EGDSLRYYAAL | GKSNRPS | SSRDSSGFQVF, the assay gave no signal (0 of 3 replicates).
For EGDSLRYVPAN | GKFNRPS | SSRDSSGFQVF, the assay gave 280 nM (3 of 3 replicates).
For EGDSLRYYYAN | GKINRPS | SQRDSDGFQVF, the assay gave 17 µM (2 of 3 replicates).
For EGDSLRYIYAN | GKFNRPS | SSRDSGGFQVF, the assay gave 9.7 µM (3 of 3 replicates).
For EGDSIRYYYAN | GKDNRPN | SSRDSSGFQVF, the assay gave 550 nM (3 of 3 replicates).
For EGGKLRYYYAN | GKFNRPS | SSRDSSGFQVF, the assay gave 280 nM (3 of 3 replicates).
For LGDSLGYYYAN | GKMNRPS | SSRDSSGFQVF, the assay gave 17 µM (3 of 3 replicates).
For EGDSLRYNYAN | GKMNRPS | SSRDSSGFQVF, the assay gave 5.4 nM (3 of 3 replicates).
For EGDGLRYYYAN | GKCNRPS | SSRDSSGFQVF, the assay gave 23 µM (2 of 3 replicates).
For EGDSLRYRYAN | GKQNRPS | SSRESSGFQVF, the assay gave no signal (0 of 3 replicates).
For EHDSLRYYYAN | GVANRPS | SSRDSSGFQVF, the assay gave 10 µM (2 of 3 replicates).
For EGDSHRYYYAN | GKINRPS | SSRDSSGFQVF, the assay gave no signal (0 of 3 replicates).
For EGDSLRGYRAN | GKVNRPS | SSRDSSGFQVF, the assay gave 4.0 µM (3 of 3 replicates).
For EGDSLRYYYAN | GKRNRPS | SSKDSAGFQVF, the assay gave 310 µM (1 of 3 replicates).
For EGDSLRYYYAF | GKKNRPS | SSRDSSAFQVF, the assay gave 10 µM (2 of 3 replicates).
For EGDKLRYYYAN | SKQNRPS | SSRDSSGFQVF, the assay gave 27 µM (1 of 3 replicates).
For EGDSLRYYYAN | GKDNRPT | SSRDSSGFQHF, the assay gave 160 nM (3 of 3 replicates).
For EGDSLRYYYAN | GKPNRPS | FSRDSSGNQVF, the assay gave 56 µM (1 of 3 replicates).
For EGDSMRYYYAN | GKENRPS | SSRDSWGFQVF, the assay gave no signal (0 of 3 replicates).
For EGDSLRYYYAN | GKENKPS | SSRDSSGFQVL, the assay gave 1.2 µM (3 of 3 replicates).
For EGKSLRYYYAN | RKKNRPS | SSRDSSGFQVF, the assay gave 37 µM (3 of 3 replicates).
For EGDSLRYYIAN | GKLNRPS | SSRDSSGFSVF, the assay gave 15 µM (1 of 3 replicates).
For PGDSLRYYYAN | GKFNRPS | SSRDQSGFQVF, the assay gave 440 nM (3 of 3 replicates).
For EGDSLRYLYAN | GKENRCS | SSRDSSGFQVF, the assay gave 6.0 µM (1 of 3 replicates).
For EGDSLRYYYAN | GQYNAPS | SSRDSSGFQVF, the assay gave 2.2 µM (2 of 3 replicates).
For EGDSLRYYYAN | GKCNRPS | SSRHSSRFQVF, the assay gave 39 µM (1 of 3 replicates).
For EGDSLRYYYAN | GKTNRPS | SNRDSSGFQVW, the assay gave 4.6 µM (1 of 3 replicates).
For EGCYLRYYYAN | GKCNRPS | SSRDSSGFQVF, the assay gave 11 µM (3 of 3 replicates).
For EGDSLRFYYAN | GKLNRPS | SSRDSSGFHVF, the assay gave 6.3 µM (2 of 3 replicates).
For EGDSLRYYYAN | TGLNRPS | SSRDSSGFQVF, the assay gave 5.2 µM (3 of 3 replicates).
For EGDSLRYYYAN | NKINRPS | SSRDTSGFQVF, the assay gave 7.2 µM (1 of 3 replicates).
For EGDSLRYYYAN | GKINRWS | SSRDPSGFQVF, the assay gave 17 µM (1 of 3 replicates).

The opening 3 entries, copied out:

For EGDSLRYYYAN | GKDNRPS | SQRDSSKFQVF, the assay gave 4.5 µM (3 of 3 replicates).
For EGDSLRYYYAN | GKINRPS | SSRDSSKFQVF, the assay gave no signal (0 of 3 replicates).
For EGDSLRYYYAW | GKIWRPS | SSRDSSGFQVF, the assay gave 6.1 µM (1 of 3 replicates).